Yeast mating assay 1: variants of the scFv Ab-14

Values reported by Engelhart et al. 2022, doi:10.1038/s41597-022-01779-4 (FLAb copy).

Antigen: PDVDLGDISGINAS, a 14-residue peptide of the SARS-CoV-2 spike HR2 region.

The variants keep the light chain, the linker and the frameworks of Ab-14 (scFv order VH, three GGGGS repeats, VL).
VH: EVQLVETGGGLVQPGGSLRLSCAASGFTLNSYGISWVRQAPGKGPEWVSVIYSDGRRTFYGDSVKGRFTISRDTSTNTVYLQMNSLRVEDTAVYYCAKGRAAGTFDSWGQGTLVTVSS
VL: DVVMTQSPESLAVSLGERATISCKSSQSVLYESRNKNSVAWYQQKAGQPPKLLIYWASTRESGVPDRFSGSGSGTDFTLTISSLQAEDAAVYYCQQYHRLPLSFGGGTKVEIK

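The starting antibody came from a phage panning campaign against this peptide. Library AAYL49 holds single substitutions and randomly drawn double and triple substitutions in the CDRs. In AlphaSeq, yeast of one mating type display the scFv and yeast of the other type display the target. The frequency of each diploid, read from paired DNA barcodes, reflects how well the two displayed proteins bind. Read counts were normalised to the haploid input and turned into Kd by a linear fit to BCL2-family pairs of known affinity, for each replicate. There are three technical replicates.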

Variants are written as CDR1, CDR2 and CDR3 of the heavy chain (limits as in the source). Parent: GFTLNSYGIS, VIYSDGRRTFYGDSVK, GRAAGTFDS.
Every variant below is changed at A101 of the VH (sequential numbering).
The Kd shown is the geometric mean over detected replicates; a lower Kd is a better binder.
"nd" means that the variant was in the library but no mating with the target was seen in any replicate; the authors take this as a sign of poor binding, and no number exists.
In this assay the parent's reference entry averaged 4.4 nM; its copy inside this library read 13 µM (one replicate of three).

- VFTLNSYGIS / VIYSDGRRTEYGDSVK / GRCAGTFDS = 1.1 µM (2 of 3 replicates)
- GTTLNSYGIS / VIYSDGRRTFYGDSVK / GRLRGTFDS = 190 nM (2 of 3 replicates)
- GFTLNCYGIS / VIYSDGRRTFYGDSVW / GRLAGTFDS = 30 µM (3 of 3 replicates)
- GFTFNSYGIS / VEYSDGRRTFYGDSVK / GRDAGTFDS = nd (0 of 3 replicates)
- GYTLNSRGIS / VIYSDGRRTFYGDSVK / GRLAGTFDS = nd (0 of 3 replicates)
- GFTLNSYGIS / VIYSDGRRTFYGDSVK / GRPWGTFDN = 24 µM (3 of 3 replicates)
- GHTENSYGIS / VIYSDGRRTFYGDSVK / GRSAGTFDS = 1.0 µM (1 of 3 replicates)
- GFTQNSYGIS / VIYSDGRRTFYGDSVH / GRQAGTFDS = nd (0 of 3 replicates)
- GYTLNCYGIS / VIYSDGRRTFYGDSVK / GRMAGTFDS = 340 nM (1 of 3 replicates)
- GFTLNSYGIN / VIYSDGRRTFYPDSVK / GRQAGTFDS = nd (0 of 3 replicates)
- GFTLNSYGIS / VIYSDGWRTFYGDSVF / GRGAGTFDS = 230 µM (1 of 3 replicates)
- GFTLTSYGIS / VIYSDGRRTFYGDSAK / GRNAGTFDS = 16 nM (3 of 3 replicates)
- GFTLNSYGIS / VIYSDGRRTFYGDSLK / GRFAGYFDS = nd (0 of 3 replicates)
- GFTLNSYGIS / VIYSDGARTFYGDSVI / GRMAGTFDS = 150 µM (2 of 3 replicates)
- GFTLNSYGIS / VIYSDGRRTPYGDSVK / GRDAGTFDS = nd (0 of 3 replicates)
- GFTLNSYGIS / VIYLDGRRTFWGDSVK / GRKAGTFDS = nd (0 of 3 replicates)
- GFTLNSAGIS / VIYSDGRRTFYGDSVK / GRRAGTHDS = nd (0 of 3 replicates)
- GFTLNSYGIS / VIYSDGRRTFYGDSVK / GRVAFTFDS = nd (0 of 3 replicates)
- GFTLNSYGIS / VIYSDGRRTFYGDSYK / GRNAVTFDS = nd (0 of 3 replicates)
- GFTLNSYGIS / VIYSDGRRTFYGIYVK / GREAGTFDS = nd (0 of 3 replicates)
- GFTLNSYGIS / VIYSDGRFTFYGDSVK / GDGAGTFDS = 310 nM (1 of 3 replicates)
- GFILNSYGIV / VIYSDGRRTFYGDSVK / GRNAGTFDS = nd (0 of 3 replicates)
- GFSLNVYGIS / VIYSDGRRTFYGDSVK / GRWAGTFDS = 4.7 nM (3 of 3 replicates)
- GFTLNSYGIS / VIYSDGRRTFYDDSVK / GQLAGTFDS = 850 pM (3 of 3 replicates)
- GFTLNYYGIS / VIYSDGYRTFYGDSVK / GRGAGTFDS = 860 nM (3 of 3 replicates)
- GFTLNSYGIS / VIYSDGIRTFYGDSVK / GRGAGRFDS = 66 nM (3 of 3 replicates)
- GFTLNSYGIS / VIYSDGRRSFYGDSVK / GRSAGTFDS = 63 nM (3 of 3 replicates)
- GFTLWSYGIS / VQYSDGRRTFYGDSVK / GREAGTFDS = 350 nM (3 of 3 replicates)
- GFTLNSYGIS / VIYSDGRRTFYGDSVK / GRFAGFFDS = nd (0 of 3 replicates)
- GFTLNSYGIS / VIGSDGRRTFYGDSVK / GRSAGTFDS = nd (0 of 3 replicates)
- GFTLNSYMIS / VIYSDGRRTFSGDSVK / GREAGTFDS = nd (0 of 3 replicates)
- GFTLNSYGIS / VIYSDGHRFFYGDSVK / GRCAGTFDS = 120 nM (3 of 3 replicates)
- GFTLNSYGES / VQYSDGRRTFYGDSVK / GRQAGTFDS = nd (0 of 3 replicates)
- GFTLNSYGQS / VIYSDGRRTFYGPSVK / GRQAGTFDS = 230 nM (1 of 3 replicates)
- GFTLNSYGIS / VIYSDGRRTFYGDIVK / GRDAGTFPS = nd (0 of 3 replicates)
- GFTLNSYGPS / VIYSDGRRTFYGDSVK / GREAETFDS = 4.3 µM (1 of 3 replicates)
- GFTLNSYGIS / VIYSDGRWTFYGDSVK / GRGAGTEDS = 1.6 µM (1 of 3 replicates)
- GFTLNSYKIS / VIYSDGRRTFYGDSVK / GRGAGTFDS = nd (0 of 3 replicates)
- GFTLNSYGIS / VISSIGRRTFYGDSVK / GRRAGTFDS = nd (0 of 3 replicates)
- GFTLNSYGIS / VIYSDGRRTFYGDSVK / GSSAGTRDS = nd (0 of 3 replicates)
- GFTLNSYGHS / VIYSDGRRTFYGDSVK / GRCAGTFDS = 120 µM (2 of 3 replicates)
- GFTLNSVGIW / VIYSDGRRTFYGDSVK / GRGAGTFDS = 370 µM (2 of 3 replicates)
- GFTLNMYGIS / VIYSDGRRTFYGDSVK / GRHAWTFDS = 3.7 nM (3 of 3 replicates)
- GFTLNSYGIS / VIYSDGRRTFYGGSVA / GRYAGTFDS = 86 nM (3 of 3 replicates)
- GFTLNSYGIS / VIYSDGRRTFYGDSVK / VRLAGTFDA = 94 nM (3 of 3 replicates)
- GFTLNSYGIS / VIYIDGRRTFYGDSVK / GREAGTFDK = 6.6 µM (1 of 3 replicates)
- GFTLNDYGIS / VIYSDGRRTFYGDSVK / GRYAGTFDS = 1.2 nM (3 of 3 replicates)

The opening 7 entries, copied out:

{"CDR-H1": "VFTLNSYGIS", "CDR-H2": "VIYSDGRRTEYGDSVK", "CDR-H3": "GRCAGTFDS", "apparent Kd": "1.1 µM", "replicates with signal": "2/3"}
{"CDR-H1": "GTTLNSYGIS", "CDR-H2": "VIYSDGRRTFYGDSVK", "CDR-H3": "GRLRGTFDS", "apparent Kd": "190 nM", "replicates with signal": "2/3"}
{"CDR-H1": "GFTLNCYGIS", "CDR-H2": "VIYSDGRRTFYGDSVW", "CDR-H3": "GRLAGTFDS", "apparent Kd": "30 µM", "replicates with signal": "3/3"}
{"CDR-H1": "GFTFNSYGIS", "CDR-H2": "VEYSDGRRTFYGDSVK", "CDR-H3": "GRDAGTFDS", "apparent Kd": "nd", "replicates with signal": "0/3"}
{"CDR-H1": "GYTLNSRGIS", "CDR-H2": "VIYSDGRRTFYGDSVK", "CDR-H3": "GRLAGTFDS", "apparent Kd": "nd", "replicates with signal": "0/3"}
{"CDR-H1": "GFTLNSYGIS", "CDR-H2": "VIYSDGRRTFYGDSVK", "CDR-H3": "GRPWGTFDN", "apparent Kd": "24 µM", "replicates with signal": "3/3"}
{"CDR-H1": "GHTENSYGIS", "CDR-H2": "VIYSDGRRTFYGDSVK", "CDR-H3": "GRSAGTFDS", "apparent Kd": "1.0 µM", "replicates with signal": "1/3"}

Three control strains display no target. For library AAYL49, 15% of the pairings with them gave a signal, with a median of 11 µM and one signal in twenty below 680 nM, so weak values seen in few replicates may be background.